# Test results: PubChem BioAssay (EPA / NIEHS)
# This is a selection; strong and weak results do not stand in their true shares. The source made the active and inactive calls. How the source made its calls: active means hit-call score of the fitted dose curve at least 0.9, where 1 is the maximum; inactive means score below 0.9.
# Assays:
# [1] = BSK_CASM3C_SRB: Viability Assessment in the BioMAP Diversity Plus: CASM3C Assay (AID 2283050); conditions: primary human coronary artery smooth muscle cells;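 further: cells exposed to compound for 24 h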
# [2] = read-out: Thrombomodulin, THBD (gene 7056); assay: BSK_CASM3C_Thrombomodulin: BioMAP Diversity Plus: CASM3C Assay for Thrombomodulin Biomarker Activity (AID 2283051); conditions: actives raise or lower the signal; primary human coronary artery smooth muscle cells;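 further: thrombomodulin protein level measured by ELISA 24 h after dosing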
# [3] = read-out: Tissue Factor, F3 (gene 2152); assay: BSK_CASM3C_TissueFactor: BioMAP Diversity Plus: CASM3C Assay for Tissue Factor Biomarker Activity (AID 2283052); conditions: actives raise or lower the signal; primary human coronary artery smooth muscle cells;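 further: cell surface tissue factor protein level read by ELISA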
# [4] = read-out: Interferon-gamma inducible Protein 10 (IP10), CXCL10 (gene 3627); assay: BSK_hDFCGF_IP10: BioMAP Diversity Plus: hDFCGF Assay for Interferon-gamma inducible Protein 10 (IP10) Biomarker Activity (AID 2283053); conditions: actives raise or lower the signal; primary human foreskin fibroblasts
# Summary of the method: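 Primary foreskin fibroblasts, human; 24 h compound exposure; IP-10 by ELISA; bidirectional fit vs DMSO.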
# [5] = read-out: Urokinase-type plasminogen activator receptor (uPAR), PLAUR (gene 5329); assay: BSK_CASM3C_uPAR: BioMAP Diversity Plus: CASM3C Assay for Urokinase-type plasminogen activator receptor (uPAR) Biomarker Activity (AID 2283054); conditions: actives raise or lower the signal; primary human coronary artery smooth muscle cells;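 further: cell-surface uPAR protein level quantified by ELISA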
# [6] = read-out: Vascular cell adhesion molecule 1 (VCAM1), VCAM1 (gene 7412); assay: BSK_CASM3C_VCAM1: BioMAP Diversity Plus: CASM3C Assay for Vascular cell adhesion molecule 1 (VCAM1) Biomarker Activity (AID 2283055); conditions: actives raise or lower the signal; primary human coronary artery smooth muscle cells;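 further: VCAM-1 protein level quantified by ELISA on the cells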
# [7] = read-out: Collagen III, COL3A1 (gene 1281); assay: BSK_hDFCGF_CollagenIII: BioMAP Diversity Plus: hDFCGF Assay for Collagen III Biomarker Activity (AID 2283056); conditions: actives raise or lower the signal; primary human foreskin fibroblasts
# Summary of the method: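 Cells: human foreskin fibroblasts, primary. Dosing followed by 24 h incubation, then ELISA for collagen III. Both increases and decreases scored relative to DMSO.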
# [8] = read-out: Epidermal growth factor receptor (EGFR), EGFR (gene 1956); assay: BSK_hDFCGF_EGFR: BioMAP Diversity Plus: hDFCGF Assay for Epidermal growth factor receptor (EGFR) Biomarker Activity (AID 2283057); conditions: actives raise or lower the signal; primary human foreskin fibroblasts
# Summary of the method: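 hDFCGF system, primary human foreskin fibroblasts; compound 24 h; EGFR measured by ELISA; DMSO = negative control/baseline; bidirectional fitting.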
# [9] = read-out: Interleukin-8 (IL8), CXCL8 (gene 3576); assay: BSK_hDFCGF_IL8: BioMAP Diversity Plus: hDFCGF Assay for Interleukin-8 (IL8) Biomarker Activity (AID 2283058); conditions: actives raise or lower the signal; primary human foreskin fibroblasts
# Summary of the method: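 IL-8 levels from compound-treated primary human fibroblasts were read by ELISA at 24 h, with DMSO serving as baseline for bidirectional fitting.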
# [10] = BSK_hDFCGF_Proliferation: Cell Proliferation Assessment in the BioMAP Diversity Plus: hDFCGF Assay (AID 2283059); conditions: primary human foreskin fibroblasts;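 further: curves fitted for both rise and fall of signal versus DMSO baseline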
# Summary of the method: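 Primary human foreskin fibroblasts, sub-confluent; […]; 10% TCA fix, 0.1% SRB stain, A560 total protein. Gain/loss fitted bidirectionally vs DMSO control.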
# [11] = read-out: Macrophage colony-stimulating factor (MCSF), CSF1 (gene 1435); assay: BSK_hDFCGF_MCSF: BioMAP Diversity Plus: hDFCGF Assay for Macrophage colony-stimulating factor (MCSF) Biomarker Activity (AID 2283060); conditions: actives raise or lower the signal; primary human foreskin fibroblasts
# Summary of the method: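 M-CSF levels, determined by ELISA, are taken at 24 h after dosing human skin fibroblasts. Responses in either direction are fitted with DMSO serving as the baseline.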
# [12] = BSK_hDFCGF_SRB: Viability Assessment in the BioMAP Diversity Plus: hDFCGF Assay (AID 2283061); conditions: primary human foreskin fibroblasts;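 further: cells exposed to compound for 24 h before the read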
# Summary of the method: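 Cells were dosed with test chemical, cultured 24 h, fixed with 10% TCA, then stained with 0.1% SRB and read at 560 nm. The fibroblasts were human foreskin primary cells, and DMSO served as baseline.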
# [13] = read-out: TIMP metallopeptidase inhibitor 1 (TIMP1), TIMP1 (gene 7076); assay: BSK_hDFCGF_TIMP1: BioMAP Diversity Plus: hDFCGF Assay for TIMP metallopeptidase inhibitor 1 (TIMP1) Biomarker Activity (AID 2283062); conditions: actives raise or lower the signal; primary human foreskin fibroblasts
# Summary of the method: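 Fibroblasts from human foreskin are treated with test chemical and harvested at 24 h. TIMP-1 is quantified by ELISA, and gain or loss of signal is scored against DMSO.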
# [14] = read-out: Monokine induced gamma interferon (MIG), CXCL9 (gene 4283); assay: BSK_hDFCGF_MIG: BioMAP Diversity Plus: hDFCGF Assay for Monokine induced gamma interferon (MIG) Biomarker Activity (AID 2283063); conditions: actives raise or lower the signal; primary human foreskin fibroblasts
# Summary of the method: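 MIG signal, determined by ELISA, reflects 24 h chemical exposure of human skin primary fibroblasts. DMSO serves as negative control and baseline.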
# [15] = read-out: Matrix Metallopeptidase 1 (MMP1), MMP1 (gene 4312); assay: BSK_hDFCGF_MMP1: BioMAP Diversity Plus: hDFCGF Assay for Matrix Metallopeptidase 1 (MMP1) Biomarker Activity (AID 2283064); conditions: actives raise or lower the signal; primary human foreskin fibroblasts
# Summary of the method: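 hDFCGF primary fibroblasts (human foreskin); chemical added; 24 h; MMP1 by ELISA; bidirectional fit vs DMSO.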
# [16] = read-out: Vascular cell adhesion molecule 1 (VCAM1), VCAM1 (gene 7412); assay: BSK_hDFCGF_VCAM1: BioMAP Diversity Plus: hDFCGF Assay for Vascular cell adhesion molecule 1 (VCAM1) Biomarker Activity (AID 2283065); conditions: actives raise or lower the signal; primary human foreskin fibroblasts;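 on AC50: VCAM-1 protein level quantified by ELISA after 24 h chemical exposure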
# Summary of the method: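 Cells are dosed, cultured for 24 h, then VCAM-1 is quantified by ELISA; signal increases and decreases are both fitted relative to DMSO.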
# [17] = read-out: Plasminogen activator inhibitor-1 (PAI1), SERPINE1 (gene 5054); assay: BSK_hDFCGF_PAI1: BioMAP Diversity Plus: hDFCGF Assay for Plasminogen activator inhibitor-1 (PAI1) Biomarker Activity (AID 2283066); conditions: actives raise or lower the signal; primary human foreskin fibroblasts
# Summary of the method: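 Primary dermal fibroblasts (human foreskin), hDFCGF system; compound 24 h; PAI-1 by ELISA; bidirectional fit vs DMSO control.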
# [18] = read-out: Intercellular Adhesion Molecule 1 (ICAM1), ICAM1 (gene 3383); assay: BSK_KF3CT_ICAM1: BioMAP Diversity Plus: KF3CT Assay for Intercellular Adhesion Molecule 1 (ICAM1) Biomarker Activity (AID 2283067); conditions: actives raise or lower the signal; primary human keratinocytes with fibroblasts
# Summary of the method: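 Dose the keratinocyte/fibroblast co-culture, wait 24 h, measure ICAM-1 by ELISA, then fit increases or decreases against DMSO. Cytotoxicity is checked in parallel cultures by SRB total-protein staining.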
# [19] = read-out: Interferon-gamma inducible Protein 10 (IP10), CXCL10 (gene 3627); assay: BSK_KF3CT_IP10: BioMAP Diversity Plus: KF3CT Assay for Interferon-gamma inducible Protein 10 (IP10) Biomarker Activity (AID 2283068); conditions: actives raise or lower the signal; primary human keratinocytes with fibroblasts
# Summary of the method: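 In a primary skin co-culture of keratinocytes and fibroblasts, IP-10 is quantified by ELISA at 24 h after dosing. SRB staining of parallel wells monitors overt toxicity. Curves are fitted both directions against DMSO.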
# [20] = BSK_KF3CT_SRB: Viability Assessment in the BioMAP Diversity Plus: KF3CT Assay (AID 2283069); conditions: primary human keratinocytes with fibroblasts;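 further: total protein by sulforhodamine B staining as a cytotoxicity measure; fitted for both signal gain and loss against DMSO baseline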
# Summary of the method: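 Keratinocytes co-cultured with foreskin fibroblasts (human primary); chemical added, 24 h; fix 10% TCA, stain 0.1% SRB, A560. Bidirectional fit vs DMSO.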
smiles,measurement,setting,value
Cc1c([N+](=O)[O-])cccc1[N+](=O)[O-],outcome,[1],inactive
same,outcome,[2],inactive
same,outcome,[3],inactive
same,outcome,[4],inactive
same,outcome,[5],inactive
same,outcome,[6],inactive
same,outcome,[7],inactive
same,outcome,[8],inactive
same,outcome,[9],inactive
same,outcome,[10],inactive
same,outcome,[11],inactive
same,outcome,[12],inactive
same,outcome,[13],inactive
same,outcome,[14],inactive
same,outcome,[15],inactive
same,outcome,[16],inactive
same,outcome,[17],inactive
same,outcome,[18],inactive
same,outcome,[19],inactive
same,outcome,[20],inactive
Cc1ccc([N+](=O)[O-])c([N+](=O)[O-])c1,outcome,[1],inactive
same,outcome,[2],inactive
same,outcome,[3],inactive
same,outcome,[4],inactive
same,outcome,[5],inactive
same,AC50,[6],active: 5.02 µM
same,outcome,[7],inactive
same,outcome,[8],inactive
same,outcome,[9],inactive
same,AC50,[10],active: 15.6 µM
same,AC50,[11],active: 6.46 µM
same,outcome,[12],inactive
same,AC50,[13],active: 5.54 µM
same,AC50,[14],active: 20 µM
same,AC50,[15],active: 3.97 µM
same,AC50,[16],active: 12.7 µM
same,AC50,[17],active: 3.97 µM
same,outcome,[18],inactive
same,outcome,[19],inactive
same,outcome,[20],inactive
Cc1ccc([N+](=O)[O-])cc1[N+](=O)[O-],outcome,[1],inactive
same,outcome,[2],inactive
same,outcome,[3],inactive
same,outcome,[4],inactive
same,outcome,[5],inactive
same,outcome,[6],inactive
same,outcome,[7],inactive
same,outcome,[8],inactive
same,outcome,[9],inactive
same,outcome,[10],inactive
same,outcome,[11],inactive
same,outcome,[12],inactive
same,outcome,[13],inactive
same,outcome,[14],inactive
same,outcome,[15],inactive
same,outcome,[16],inactive
same,outcome,[17],inactive
same,outcome,[18],inactive
same,outcome,[19],inactive
same,outcome,[20],inactive
Cc1cccc([N+](=O)[O-])c1[N+](=O)[O-],outcome,[1],inactive
same,outcome,[2],inactive
same,outcome,[3],inactive
same,AC50,[4],active: 14.3 µM
same,outcome,[5],inactive
same,outcome,[6],inactive
same,outcome,[7],inactive
same,outcome,[8],inactive
same,outcome,[9],inactive
same,AC50,[10],active: 14.3 µM
same,AC50,[11],active: 11.1 µM
same,outcome,[12],inactive
same,outcome,[13],inactive
same,outcome,[14],inactive
same,outcome,[15],inactive
same,AC50,[16],active: 9.36 µM
same,outcome,[17],inactive
same,outcome,[18],inactive
same,outcome,[19],inactive
same,outcome,[20],inactive
CC(C)OP(C)(=O)OC(C)C,outcome,[1],inactive
same,outcome,[2],inactive
same,outcome,[3],inactive
same,outcome,[4],inactive
same,outcome,[5],inactive
same,outcome,[6],inactive
same,outcome,[7],inactive
same,outcome,[8],inactive
same,outcome,[9],inactive
same,AC50,[10],active: 20 µM
same,outcome,[11],inactive
same,outcome,[12],inactive
same,outcome,[13],inactive
same,outcome,[14],inactive
same,outcome,[15],inactive
same,outcome,[16],inactive
same,outcome,[17],inactive
same,outcome,[18],inactive
same,outcome,[19],inactive
same,outcome,[20],inactive
O=[N+]([O-])c1cccc([N+](=O)[O-])c1,outcome,[1],inactive
same,outcome,[2],inactive
same,outcome,[3],inactive
same,outcome,[4],inactive
same,outcome,[5],inactive
same,outcome,[6],inactive
same,outcome,[7],inactive
same,outcome,[8],inactive
same,outcome,[9],inactive
same,outcome,[10],inactive
same,outcome,[11],inactive
same,outcome,[12],inactive
same,outcome,[13],inactive
same,outcome,[14],inactive
same,outcome,[15],inactive
same,outcome,[16],inactive
same,outcome,[17],inactive
same,outcome,[18],inactive
same,outcome,[19],inactive
same,outcome,[20],inactive
